Data on 26 compounds can be found in patent US8263592B2, “Equilibrative nucleoside transporter ENT1 inhibitors” (Janssen Pharmaceutica NV, priority 2007, dated 2012).

Chains of the proteins cited; added tags and fusions are not shown.
UniProt Q99808, whole entry: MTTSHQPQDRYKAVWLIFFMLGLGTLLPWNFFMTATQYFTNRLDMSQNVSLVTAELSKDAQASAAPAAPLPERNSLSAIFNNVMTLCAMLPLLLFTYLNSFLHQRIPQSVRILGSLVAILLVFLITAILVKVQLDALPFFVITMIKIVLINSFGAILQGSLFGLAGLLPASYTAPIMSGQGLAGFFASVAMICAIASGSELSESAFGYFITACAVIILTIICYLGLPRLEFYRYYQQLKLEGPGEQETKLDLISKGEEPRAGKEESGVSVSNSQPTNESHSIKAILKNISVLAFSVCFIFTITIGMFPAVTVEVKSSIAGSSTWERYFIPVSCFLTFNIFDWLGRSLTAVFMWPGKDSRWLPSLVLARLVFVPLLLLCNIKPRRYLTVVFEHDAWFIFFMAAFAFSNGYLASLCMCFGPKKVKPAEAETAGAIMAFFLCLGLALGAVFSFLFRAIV

The experiment deals with human ENT1 transporter (Homo sapiens, UniProt Q99808). Briefly: hENT1-NBMPR-ERYTH binding assay ([3H]NBMPR, human erythrocytes). The conditions noted are these: [3H]NBMPR 1 nM, washed human red blood cells 1:200, 30 minutes at room temperature; pIC50=-log(IC50).
As to `O=C1CC2(CCN(CCNC(=O)c3c(Cl)cccc3Cl)CC2)Oc2cc(OC3CCNCC3)c(Cl)cc21`, the “pIC50 values for ENT1 transporter inhibition” value was 8.38.
To `O=C1NC2(CCN(CCNC(=O)c3c(Cl)cccc3Cl)CC2)Oc2cc(N3CCNCC3)c(Cl)cc21` belongs 7.80; to `CC(C)(C)OC(=O)N1CCN(c2cc3c(cc2Cl)C(=O)NC2(CCN(CCNC(=O)c4c(Cl)cccc4Cl)CC2)O3)CC1`, 9.52.
The result for `Cc1cc2c(cc1N)OC1(CCN(CCNC(=O)c3c(Cl)cccc3Cl)CC1)CC2=O` reads 6.90; that for `CC(=O)N1CCC(Nc2cc3c(cc2Cl)C=CC2(CCN(CCNC(=O)c4c(Cl)cccc4Cl)CC2)O3)CC1`, 9.49; that for `Cc1cc(NC(C)C)c2c(c1)C(=O)NC1(CCN(CCNC(=O)c3c(C)cccc3C)CC1)O2`, 7.21.
Consider `CC(C)Oc1cc2c(cc1Cl)C(=O)NC1(CCN(CCNC(=O)c3c(Cl)cccc3Cl)CC1)O2`, for which the “pIC50 values for ENT1 transporter inhibition” value turned out to be 8.90.
The result for `O=C(NCCN1CCC2(CC1)CC(=O)c1c(O)cccc1O2)c1c(Cl)cccc1Cl` reads 6.47.
`O=C1NC2(CCN(CCNC(=O)c3c(Cl)cccc3Cl)CC2)Oc2c1ccc(NC1CCOCC1)c2Cl`: the “pIC50 values for ENT1 transporter inhibition” value is reported as 7.375.
For `Cc1cc(N)c2c(c1)C(=O)NC1(CCN(CCNC(=O)c3c(C)cccc3C)CC1)O2`, the “pIC50 values for ENT1 transporter inhibition” value came to 5.42.
Turning to `O=C1NC2(CCN(CCNC(=O)c3c(Cl)cccc3Cl)CC2)Oc2cc(O)c(Cl)cc21`, the “pIC50 values for ENT1 transporter inhibition” value came to 6.08.
Consider `Cc1ccc2c(c1)C(=O)CC1(CCN(CCNC(=O)c3c(Cl)cccc3Cl)CC1)O2`, for which the “pIC50 values for ENT1 transporter inhibition” value was found to be 7.25.
The result for `CN(C)c1ccc2c(c1Cl)OC1(CCN(CCNC(=O)c3c(Cl)cccc3Cl)CC1)NC2=O` reads 8.72; that for `CC(=O)N1CCC(Nc2ccc3c(c2Cl)OC2(CCN(CCNC(=O)c4c(Cl)cccc4Cl)CC2)NC3=O)CC1`, 7.09; that for `COc1cccc2c1C(=O)CC1(CCN(CCNC(=O)c3c(Cl)cccc3Cl)CC1)O2`, 6.11.
As to `CC(C)Oc1cc2c(cc1Cl)CCC1(CCN(CCNC(=O)c3c(Cl)cccc3Cl)CC1)O2`, the “pIC50 values for ENT1 transporter inhibition” value came out at 9.12.
To `CC(=O)N1CCC(Oc2cc(C)cc3c2OC2(CCN(CCNC(=O)c4c(Cl)cccc4Cl)CC2)CC3=O)CC1` belongs 7.925.
The result for `O=C1NC2(CCN(CCNC(=O)c3c(Cl)cccc3Cl)CC2)Oc2cc(NC3CCNCC3)c(Cl)cc21` reads 7.84; that for `Cc1cc2c(cc1NC(=O)C1CCCC1)OC1(CCN(CCNC(=O)c3c(Cl)cccc3Cl)CC1)CC2=O`, 8.405; that for `CN1CCC(Nc2cc3c(cc2Cl)C(=O)NC2(CCN(CCNC(=O)c4c(Cl)cccc4Cl)CC2)O3)CC1`, 7.08.
The result for `CNc1ccc2c(c1Cl)OC1(CCN(CCNC(=O)c3c(Cl)cccc3Cl)CC1)NC2=O` reads 8.56.
For the compound `CC(=O)N1CCC(Nc2cc(C)cc3c2OC2(CCN(CCNC(=O)c4c(C)cccc4C)CC2)NC3=O)CC1`, the “pIC50 values for ENT1 transporter inhibition” value stood at 7.05.
To `O=C1CC2(CCN(CCNC(=O)c3c(Cl)cccc3Cl)CC2)Oc2cc(N3CCCC3)ccc21` belongs 9.11.
The result for `Nc1cc2c(cc1Cl)C(=O)CC1(CCN(CCNC(=O)c3c(Cl)cccc3Cl)CC1)O2` reads 7.50; that for `CC(C)Oc1ccc2c(c1Cl)OC1(CCN(CCNC(=O)c3c(Cl)cccc3Cl)CC1)NC2=O`, 8.025.
Consider `CC(=O)N1CCC(Oc2cc(Cl)cc3c2OC2(CCN(CCNC(=O)c4c(Cl)cccc4Cl)CC2)CC3=O)CC1`, for which the “pIC50 values for ENT1 transporter inhibition” value was found to be 7.73.
